{"sequences": {"note": "Amino acid sequences for entries named in this document (tags omitted).", "UniProt P28222, whole entry": "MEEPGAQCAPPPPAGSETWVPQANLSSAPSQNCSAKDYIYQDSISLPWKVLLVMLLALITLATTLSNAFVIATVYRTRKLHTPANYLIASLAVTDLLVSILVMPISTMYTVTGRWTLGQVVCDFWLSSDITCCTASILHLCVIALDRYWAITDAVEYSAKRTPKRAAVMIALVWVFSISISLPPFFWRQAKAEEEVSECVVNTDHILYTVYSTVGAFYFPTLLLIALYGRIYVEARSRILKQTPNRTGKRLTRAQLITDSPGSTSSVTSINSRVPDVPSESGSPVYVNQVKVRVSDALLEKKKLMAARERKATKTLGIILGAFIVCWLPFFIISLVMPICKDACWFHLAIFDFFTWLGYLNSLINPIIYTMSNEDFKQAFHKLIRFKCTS"}, "source": "ChEMBL document CHEMBL3734721", "about": "(J Med Chem, 2015)", "key": {"[1]": {"molecular_target": "T1, 5-hydroxytryptamine receptor 1B (Homo sapiens, UniProt P28222)", "experiment": "Agonist activity at human 5-HT1B receptor expressed in CHO-K1 cells assessed as cAMP level by HTRF assay", "format": "functional, cell-based"}, "[2]": {"molecular_target": "T1, 5-hydroxytryptamine receptor 1B", "experiment": "Antagonist activity at human 5-HT1B receptor expressed in CHO-K1 cells assessed as seretonin-induced cAMP level by HTRF assay", "format": "functional, cell-based"}}, "data": [{"compound": "CC(C)NCC(O)COc1cccc2ccccc12", "note": "(configuration not stated) [PROPRANOLOL]", "values": [{"measurement": "EC50", "setting": "[1]", "result": "> 5.01", "unit": "µM"}, {"measurement": "IC50", "setting": "[2]", "result": "> 5.01", "unit": "µM"}]}]}
